Data from US12285421B2, “Uses of a 5-HT4 receptor agonist” (SUVEN LIFE SCIENCES LIMITED, priority 2018, dated 2025).

Tested on: serotonin
Test: In vivo brain microdialysis, serotonin modulation in ventral hippocampus
Details: paroxetine 5 mg/kg, i.p. alone, rat ventral hippocampus
From the text: Under isoflurane anesthesia, male Wistar rats (240-300 g body weight) were stereotaxically implanted with a microdialysis guide cannula in ventral hippocampus (AP: −5.2 mm, ML: +5.0 mm, DV: −3.8 mm). Co-ordinates were taken according to atlas for the rat brain (Paxinos and Watson, 2004) with reference points taken from bregma and vertical from the skull. […] One day prior to the microdialysis experiment, rats were connected to a dual quartz lined two-channel liquid swivel (Instech, UK) on a counter balance lever arm, which allowed unrestricted movements of the animal. Approximately sixteen hour before start of study, a pre-equilibrated microdialysis probe (4 mm dialysis membrane) was inserted into the ventral hippocampus through the guide cannula. […] Quantification of serotonin using LC-MS/MS Concentrations of serotonin in dialysates were quantified using LC-MS/MS by the analytical method described in Nirogi et al. [2013] after slight modifications. […] The analytes were quantified using triple quadrupole tandem mass spectrometer in positive ionisation mode using atmospheric pressure ionisation source. […] The statistical significance between the mean AUC values for percent change in neurotransmitter levels of treatment groups with vehicle was calculated using one way ANOVA followed by Dunnetts test. […]

## Fc1ccc([C@@H]2CCNC[C@H]2COc2ccc3c(c2)OCO3)cc1 [paroxetine, reference compound]
  increase in hippocampal serotonin levels, mean maximum above pre-dose levels: 114%
